# Apparent affinities of Ab-14 variants for a coronavirus HR2 peptide

All variants were tested on one target, the spike HR2 peptide PDVDLGDISGINAS (SARS-CoV-2).

Parent: Ab-14, a human scFv built as VH, a 15-residue (Gly4Ser)3 linker, VL. Only the CDRs of the heavy chain vary.
VH: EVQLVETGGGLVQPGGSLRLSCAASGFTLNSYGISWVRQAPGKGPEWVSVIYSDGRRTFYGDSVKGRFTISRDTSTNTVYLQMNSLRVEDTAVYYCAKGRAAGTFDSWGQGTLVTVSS
VL: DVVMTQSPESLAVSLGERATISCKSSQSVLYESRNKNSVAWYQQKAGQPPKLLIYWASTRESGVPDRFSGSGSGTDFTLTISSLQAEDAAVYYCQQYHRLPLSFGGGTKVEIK

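These sequences belong to a second round, designed from the earlier measurements on random variants of the parent. Their group label is 14H_GPLM_HC (GPLM: also part of the Gaussian process libraries; HC: hill climbing; a sequence that several methods proposed may carry one label only). Affinity was read by AlphaSeq, a pooled yeast mating assay with surface-displayed partners. Mating (16 h, 30 °C) was followed by selection of diploids and sequencing of their barcodes. The ratio of observed to expected reads was calibrated, replicate by replicate, on BCL2-family standards whose Kd was known from biolayer interferometry. There are six technical replicates.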

Changes read parent residue, position, new residue, counted from the first residue of the VH shown. Scale: log10 of Kd in nM, estimated from mating counts; low values are strong binders. "nd" means that the variant was in the library but no mating with the target was seen in that replicate; the authors take this as a sign of poor binding, and no number exists. As a blank, each scFv also met three strains without target: over all heavy chain designs, 1% of these pairings were detected, typically at 2.08 and seldom below 0.84. Also given: how often the same scFv was detected with the empty control strains, with their mean in brackets. The range of this assay differs from that of the first round, and the authors advise against merging the two. In the paper, a design with two or fewer of six values counts as a poor binder. Of ten entries with the parent sequence, four were seen in most replicates (averages 0.34 to 2.37), three in one and three in none, so single entries are noisy.

changes	log10 Kd, replicates	empty controls
S31E/R56S/G61T/A101Q	2.36 1.74 1.13 1.33 1.95 1.53	1/18 (1.91)
T28W/G61D/R100Q/A101T	2.12 1.46 0.90 1.51 1.82 1.66	1/18 (2.46)
G61S/R100E/A102G	1.67 2.14 1.12 0.58 1.42 2.15	1/18 (1.40)
S31E/F59Q/G61T	0.43 0.47 0.08 -0.04 0.25 nd	0/18
T28Y/G61H/R100Q/A101L	nd nd nd nd 1.19 nd	1/18 (2.08)
S31D/R100E/S107K	2.83 2.42 2.05 2.88 1.72 3.30	0/18
S31E/R56Y/S107Q	1.48 1.18 1.90 1.59 0.83 1.42	0/18
R56H/G61D/R100Q/A101L/S107T	nd nd nd nd nd nd	0/18
S31E/A101F/D106S	nd nd nd nd nd nd	0/18
S31D/F59A/D106I	nd nd nd nd nd nd	0/18
S31D/R56I/D106T	nd nd nd nd nd nd	0/18
S31D/D106E/S107K	nd 4.03 2.97 nd nd 2.09	1/18 (2.80)
T28D/G61D/R100Q/A101L	nd nd nd nd 2.12 nd	0/18
G61T/R100E/A101F	nd 0.63 -0.05 0.76 -0.09 1.72	0/18
S53A/D106K/S107I	nd nd 1.59 nd nd nd	0/18
S31D/R100K/S107T	0.31 0.34 0.24 -0.16 0.22 0.29	0/18
S31E/G61S/A102G/T104K	nd nd nd nd nd nd	1/18 (1.79)
T28G/G61S	0.49 1.55 0.93 -0.06 0.12 0.67	1/18 (0.83)
T28H/G61A/A101L	0.53 1.89 0.53 0.90 0.79 1.58	0/18
N30D/S63K	3.78 nd nd 0.99 0.95 1.86	0/18
T28S/S31E/G61S/T104H	nd 2.55 nd nd 2.96 nd	0/18
T28D/T104M	nd nd nd nd nd nd	1/18 (0.94)
T28S/S31Q/G61S/R100N	nd 1.04 0.32 nd nd 0.20	0/18
T28D/G61S/R100M	0.68 0.33 0.30 0.57 0.23 0.63	0/18
S31E/G61M/A101V	0.69 0.56 0.57 0.46 0.67 1.08	0/18
S31E/D106N/S107Q	nd nd nd nd nd nd	0/18
S31E/D62C/G103V/S107Q	nd nd nd nd nd nd	0/18
T28S/S31Q/G61H	0.68 0.11 0.88 -0.08 0.07 0.41	0/18
T28D/T104Y/D106W	nd nd nd nd nd nd	0/18
S31D/A101M	0.92 0.71 0.38 0.98 0.79 0.51	2/18 (2.62)
T28S/S31D/G61T/A101Q	0.06 -0.43 -0.32 -0.18 -0.41 0.01	2/18 (1.17)
T28Q/S31D/D106E	1.89 nd 2.86 1.62 nd 2.62	1/18 (1.54)
S31E/G103V/S107A	nd nd nd nd nd nd	0/18
T28N/G61D/R100Q/A101I	0.33 0.49 0.40 0.69 0.30 0.44	0/18
S31E/G61T/R100M/A101F	1.10 1.30 0.65 0.88 0.95 0.83	0/18
T28D/G61S/A102G/T104S	nd nd nd nd nd nd	1/18 (3.33)
S31D/D106T	nd nd nd nd nd nd	0/18
T28S/S31Q/G61V	nd nd nd nd -0.44 -0.09	0/18
T28H/G61D/R100Q/A101L	0.65 nd 2.12 nd nd nd	0/18
T28P/S31E/G61T/A101F	nd nd nd 0.09 nd nd	0/18
S31E/D106E/S107F	nd 2.47 1.63 nd 0.90 nd	0/18
F27M/G61D/R100Q/A101L	1.09 0.42 0.35 0.54 0.61 nd	1/18 (1.65)
N30D/S107L	1.34 1.38 0.61 0.43 0.50 1.40	0/18
T28D/A101T/T104R/D106T	nd nd nd nd nd nd	0/18
R56V/G61S/R100S	0.41 0.64 0.21 1.12 0.25 0.11	0/18
S31E/G61L/A101F	nd nd nd nd nd nd	0/18
S31E/F59M/A101F	0.88 0.42 0.80 0.65 0.26 1.52	0/18
T28Q/S31Q/G61S/T104H	nd nd nd nd nd nd	0/18
T28D/A101T/G103D	nd nd nd nd nd nd	0/18
N30E/G61S/R100K/A102G	nd 1.49 2.97 3.03 nd 1.99	0/18

Data: MIT Lincoln Laboratory AlphaSeq set, Li et al. 2023, doi:10.1038/s41467-023-39022-2, as distributed in FLAb.